Earlier results, collected in patent US8680142B2, “Ascorbate, vitamin K3 and hydroxytolans in the treatment of cancer” (Kent State University, priority 2007, dated 2014).

System: Mice
Details: cited from earlier work

In the case of `CC1=CC(=O)c2ccccc2C1=O` [VK3, 2-methyl-1,4-naphthoquinone], the “chronic toxicity (erythrocyte count, hemoglobin, growth curves)” value (mouse, in vivo, po, 250 mg/kg) is given as “did not affect either parameter” and the mortality (oral doses of 200 mg/Kg) is given as “No mortality”.
